{"source": "patent US10953042B2", "about": "“Vanadium insulin-mimetics, methods of preparation, and methods for treatment of diabetes” (The University of Trinidad and Tobago, priority 2017, dated 2021)", "key": {"[1]": {"tested_on": "STZ-induced diabetic rats", "conditions": "75 mg/kgbw intraperitoneal"}, "[2]": {"tested_on": "STZ-induced diabetic rats"}}, "note": "Like-named read-outs stand apart in the source and are kept apart here."}
{"substance": "(Diaqua)(2,6-pyridine diacetyl-carboxylato)oxovanadium(IV) [Complex 1]", "values": [{"measurement": "creatinine levels", "setting": "[1]", "result": "significantly reducing creatinine levels"}, {"measurement": "BUN levels", "setting": "[1]; 30-days", "result": 20.11, "unit": "mg/dL"}, {"measurement": "BUN levels", "setting": "[1]; 90-days", "result": 20.03, "unit": "mg/dL"}, {"measurement": "BUN levels", "setting": "[2]; 100 mg/kgbw oral (FIG. 20)", "result": "significant effect on decreasing BUN levels"}, {"measurement": "AST levels", "setting": "[2]; 100 mg/kgbw oral (FIG. 22)", "result": "reducing AST and ALT levels"}, {"measurement": "ALT levels", "setting": "[2]; 100 mg/kgbw oral (FIG. 23)", "result": "reducing AST and ALT levels"}, {"measurement": "creatinine levels", "setting": "[2]; oral (FIG. 21)", "result": "no significant effect on creatinine levels"}, {"measurement": "rate of release from uncoated MCM-41 nanoparticles", "setting": "low pH's (pH 2), 24 hour period", "result": "high rate of release"}, {"measurement": "release from uncoated MCM-41 nanoparticles", "setting": "pH 7.4, 24 hour period", "result": "relatively consistent and steady release"}]}
